Measurements reported in the supplement of paper PMC10933113.
Structures can show the parent of a compound that is named as a salt. ± gives the uncertainty stated by the source. The list shows a part of the results, in another mix than the full data.

Each compound was assayed on THP-1 (assay: CD86 surface expression induction over DMSO control (% over DMSO); higher = stronger dendritic cell activation). Conditions: exposure time: 24 h.
Experimental: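 hCLAT-like CD54 and CD86 surface expression on THP1 cells after 24 h exposure at a single concentration (highest non-cytotoxic concentration, or 100-200 µM if not cytotoxic). Flow cytometry (iQue) was run on 5,000 live cells.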

Row | SMILES | CD86 surface expression induction
1 | CCOC(=O)N1CCC(=C2c3ccc(Cl)cc3CCc3cccnc32)CC1 [Loratadine] (100 µM) | 18.2 ± 33
2 | NNc1nncc2ccccc12 [Hydralazine hydrochloride] (10 µM) | 0.65 ± 8.2
3 | Cn1c(=O)c2c(ncn2C)n(C)c1=O [Caffeine] (100 µM) | 0.53 ± 3.9
4 | CN1CCCN=C1/C=C/c1cccs1 [Pyrantel tartrate] (100 µM) | -4.75 ± 3.9
5 | Oc1ccc(O)cc1 [Hydroquinone] (10 µM) | 4.97 ± 0.63
6 | C=CC(=O)OCCOc1ccccc1 [2-Phenoxyethyl acrylate] (100 µM) | 0.03 ± 5.7
